Data on 91 compounds can be found in PubChem BioAssay AID504326 (The Scripps Research Institute Molecular Screening Center, 2011).

The chains behind the UniProt entries cited, without tags or fusion partners.
UniProt P35372, whole entry, looked up: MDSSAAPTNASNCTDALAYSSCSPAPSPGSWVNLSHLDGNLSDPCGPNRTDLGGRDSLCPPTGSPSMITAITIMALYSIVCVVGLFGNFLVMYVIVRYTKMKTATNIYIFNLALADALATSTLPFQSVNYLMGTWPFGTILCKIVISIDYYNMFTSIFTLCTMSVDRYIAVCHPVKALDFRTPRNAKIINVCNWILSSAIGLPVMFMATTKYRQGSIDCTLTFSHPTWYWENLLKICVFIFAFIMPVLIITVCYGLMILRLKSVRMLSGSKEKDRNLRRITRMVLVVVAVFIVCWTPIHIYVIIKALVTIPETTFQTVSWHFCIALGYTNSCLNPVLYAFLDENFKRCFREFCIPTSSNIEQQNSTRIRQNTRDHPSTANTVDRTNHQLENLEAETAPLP
UniProt P41143, whole entry, looked up: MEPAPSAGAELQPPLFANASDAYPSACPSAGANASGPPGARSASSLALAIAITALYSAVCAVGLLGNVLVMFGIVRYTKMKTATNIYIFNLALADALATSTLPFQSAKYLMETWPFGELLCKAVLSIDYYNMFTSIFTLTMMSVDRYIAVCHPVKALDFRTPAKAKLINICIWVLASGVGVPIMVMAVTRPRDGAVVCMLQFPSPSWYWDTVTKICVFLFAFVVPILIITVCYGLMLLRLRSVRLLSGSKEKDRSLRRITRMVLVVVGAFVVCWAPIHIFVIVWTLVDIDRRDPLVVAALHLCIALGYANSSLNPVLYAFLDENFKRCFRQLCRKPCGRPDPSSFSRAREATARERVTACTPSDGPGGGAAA

Several values for one entry are separate records, joined by “and”; a condition that tells them apart may be missing. Identical values can stand only once. Only a part is listed here, and it is no random draw. Activity calls are given as the source filed them. No stated cut-off is given here; in the data, active means activation above about 18%; inactive means the rest.

This experiment addresses Mu-type opioid receptor (Homo sapiens) + Delta-type opioid receptor (Homo sapiens) (UniProt P35372+P41143). Nature of the experiment: inducers of mu-delta opioid receptor heterodimers – cell-based, luminescence, primary screen (AID 504326).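 Further: 0% = vehicle-treated cells and 100% = reference agonist.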 To be noted: cells, OPRM1-OPRD1 heterodimerization, at 9.3 µM, hits give high values.
As for `N=c1n(CCN2CCCCC2)c2ccccc2n1CC(=O)c1cccc([N+](=O)[O-])c1`, the activation is inactive: 5.7%. In the case of `CCC(=O)Nc1nc2ccccc2n1CCN(CC)CC` it was inactive: 1.01%. In the case of `COc1ccccc1NC(=O)N1CCn2c(nc3ccccc32)C1` it was inactive: 1.15%. The value for `Cn1c(=O)c2c(ncn2CC(=O)N2CCN(c3cccc(Cl)c3)CC2)n(C)c1=O` was inactive: -0.37%; that for `Cc1ccc2c(c1)C1CN(C)CCC1N2C(=O)CCCN1C(=O)c2cccc3cccc(c23)C1=O` (stereo unspecified) was inactive: -1.74%; that for `CC(C)NC(=O)Cn1c(SCC(=O)c2ccc(F)cc2)nc2ccccc21` was inactive: -0.63%. Turning to `Cc1cc(C)c(CN2CCN(C(=O)Cn3cnc4c(NCc5ccccc5)ncnc43)CC2)c(C)c1`, the activation is inactive: 5.41%. In the case of `Cc1ccsc1/C=N/NC(=O)Cn1cnc2ccccc21` it was inactive: -1.08%; in that of `ClCCSc1nnc(-c2cccnc2)o1`, inactive: -2.55%; in that of `CCOC(=O)CC[C@H](NC(=O)Cn1cnc2c(NCc3ccccc3)ncnc21)C(=O)OCC`, inactive: -2.84%. In the case of `Cc1nc2ccccc2n1CC(=O)NCCN1CCCC1` it was inactive: -2.38%. In the case of `CC1(C)c2ccccc2N2CCC(=O)NC21/C=C/c1ccco1` (stereo unspecified) it was inactive: -1.62%. With `COc1ccc(CCNC(=O)[C@H](CCSC)NC(=O)N2CCn3c2nc2ccccc23)cc1OC`, the activation was inactive: -2.27%. For the compound `CSc1nc(N)nc2c1ncn2CC(=O)N[C@H](C)c1cccc2ccccc12`, the activation was inactive: -0.74%. The value for `Cc1ccc2nc3c(c(C)c2c1)CC(C(Cl)Cl)S3` (stereo unspecified) was inactive: -1.2%; that for `CN(C)CCn1cnc2c1c(=O)n(C)c(=O)n2C` was inactive: -1.55%; that for `Cn1c(=O)c2c(nc(N3CCOCC3)n2CCNC2=NCCC2)n(C)c1=O` was inactive: -3.51%. The value for `COc1ccc(S(=O)(=O)N2CCCCC2)cc1NC(=O)Cn1cnc2c1c(=O)n(C)c(=O)n2C` was inactive: -2.11%; that for `O=C(Cn1c(C(F)(F)F)nc2ccccc21)N/N=C/c1ccco1` was inactive: -1.88%; that for `CCOC(=O)Cn1c(=O)c2c(nc3n2CCN3Cc2ccccc2)n(C)c1=O` was inactive: -1.31%. In the case of `Cc1ccc(OP(=O)(Nc2ccc([N+](=O)[O-])cn2)Oc2ccc(C)cc2)cc1`, the activation was inactive: -2.33%. The value for `Fc1ccc2c(c1)nnn2C1CCN(Cc2ccccc2)CC1` was inactive: 0.34%; that for `COC(=O)[C@H](CCSC)NC(=O)Cn1cnc2c(NCc3ccccc3)ncnc21` was inactive: -1.98%; that for `CC(Cc1ccc(O)cc1)NCC(O)c1cc(O)cc(O)c1` (stereo unspecified) was inactive: -2.01%. The value for `Brc1ccc(CNc2nc3ccccc3n2CCN2CCCCC2)cc1` was inactive: 3.1%. In the case of `COc1ccc(/C=N/NC(=O)Cn2c(Cc3ccc(OC)c(OC)c3)nc3ccccc32)cc1` it was inactive: 0.12%; in that of `CN1CCN(c2nc3c(c(=O)[nH]c(=O)n3C)n2CC(N)=O)CC1`, inactive: -3.26%; in that of `CSc1nc2ccccc2n1CC(=O)Nc1c(C)cccc1C`, inactive: 0.37%. `Cc1ccc(SCc2nc3ccccc3n2CC(=O)Nc2c(C)cccc2C)cc1`: the activation is inactive: 1.49%. `Cc1n[nH]c(C)c1S(=O)(=O)N1CCC(C(=O)N2CCn3c2nc2ccccc23)CC1`: the activation was inactive: -6.03%. The value for `O=[As](O)(c1ccc(O)cc1)c1ccccc1O` was inactive: -2.01%; that for `COc1ccc(NC(=O)N2CCn3c2nc2ccccc23)cc1` was inactive: 0.22%; that for `C[As](=O)(O)c1cccc(C(=O)O)c1` was inactive: -3.23%. Take `O=[N+]([O-])c1ccc(-c2cc([N+](=O)[O-])c(O)c([N+](=O)[O-])c2)cc1`: the activation was inactive: -2.73%. In the case of `Cc1ccc(S(=O)(=O)Nc2ccc3c(c2)nc2n3CCN(Cc3ccccc3)C2)cc1` it was inactive: -0.08%; in that of `Cn1c(=O)c2c(ncn2CC(=O)N/N=C/C(Br)=C/c2ccccc2)n(C)c1=O`, inactive: -0.87%. In the case of `CCN(CC)CCn1c(NCc2ccc3c(c2)OCO3)nc2ccccc21` it was inactive: 0.04%; in that of `O=C(NCc1ccccc1)N1CCn2c(nc3ccccc32)C1`, inactive: -2.13%; in that of `O=C1Nc2ccccc2C12Nc1ccccc1-c1nc3ccccc3n12` (stereo unspecified), inactive: -2.09%.

For `CC(NC(=O)[C@H](C)NC(=O)N1CCn2c1nc1ccccc12)c1ccccc1` (stereo partly specified), the activation was inactive: -2.93%.

Take `Cc1ccccc1NC(=O)Cn1c(=O)n(C)c2ccccc21`: the activation was inactive: 0.73%. In the case of `Cc1ccccc1OCC(O)Cn1c(=N)n(CCN2CCOCC2)c2ccccc21` (stereo unspecified) it was inactive: -0.54% and inactive: -0.95%. Regarding `CN1CCC(N(C)c2nc(-c3ccc([N+](=O)[O-])cc3)nc3ccccc23)CC1`, the activation is inactive: 5.72%.

Consider `O=C(Nc1ccc(F)cc1)N1CCn2c(nc3ccccc32)C1`, for which the activation was inactive: -0.49%. The value for `C[C@H](NC(=O)N1CCn2c1nc1ccccc12)C(=O)NCc1ccco1` was inactive: -0.65%; that for `N=c1n(CCCOc2ccc(Br)cc2)c2ccccc2n1CC(N)=O` was inactive: -1.74%. The value for `Cc1ccc2c(c1)C1CN(C)CCC1N2S(=O)(=O)c1ccccc1F` (stereo unspecified) was inactive: -1.88%; that for `CC(C)CN(C(=O)Cn1c(Cl)nc2c1c(=O)n(C)c(=O)n2C)C1CCS(=O)(=O)C1` (stereo unspecified) was inactive: -2.57%. The value for `COc1ccc(NC(=O)Cn2c(NCC(C)O)nc3ccccc32)cc1Cl` (stereo unspecified) was inactive: -3.6%; that for `O=C(Cn1c2[n+](c3ccc(C(F)(F)F)cc31)CCCCC2)Nc1ccc(Br)cc1` was inactive: -0.24%.

For `CC(O)c1nc2ccccc2n1CC(=O)Nc1ccc(F)cc1Cl` (stereo unspecified), the activation is inactive: -0.65%. On to `Nc1nonc1-c1nc2ccccc2n1CC(=O)Nc1ccccc1`, for which the activation is inactive: -2.21%. In the case of `CCC(=O)Nc1nnc(/C=C/c2ccc(OC)cc2)s1` it was inactive: -0.96%; in that of `CC(=O)c1ccc(NC(=O)C2CC(=O)Nc3nc4ccccc4n32)cc1` (stereo unspecified), inactive: -3.85%; in that of `CCN(CC)CCNC(=O)Cn1c(-c2ccccn2)nc2ccccc21`, inactive: 0.48%. The value for `CCN(CC)CCn1c(=N)n(CCOc2ccccc2)c2ccccc21` was inactive: -1.81%.

As to `CCC(=O)N(c1ccccc1)C1CCCCC1`, the activation is inactive: -3.62%. Take `CCN(N=Nc1nonc1N)c1nonc1N`: the activation was inactive: -2.84%. The value for `CC(C)(C)NC(=O)Cn1c(SCC(=O)NC2CCCC2)nc2ccccc21` was inactive: -0.29%; that for `Cn1c(=O)c2c(nc(NCc3ccccc3)n2CC(=O)NCc2ccccc2)n(C)c1=O` was inactive: -0.9%; that for `O=C(Cn1cnc2ccccc21)Nc1cccc([N+](=O)[O-])c1` was inactive: -2.9%. The value for `Nc1cccc2ccc([As](=O)(O)O)cc12` was inactive: 4.75%; that for `O=C(Cn1c(SCC(=O)N2CCc3ccccc3C2)nc2ccccc21)NC1CCCC1` was inactive: -2.38%. Take `Cn1c(=O)n(CC(=O)NCc2cccnc2)c2ccccc21`: the activation is inactive: -2.93%. The value for `CC1CCCCN1C(=O)CSc1nc2ccccc2n1CC(=O)N1CCc2ccccc21` (stereo unspecified) was inactive: -1.45%. Turning to `O=C(CCCCCNC(=O)N1CCn2c1nc1ccccc12)N[C@@H](Cc1ccccc1)C(=O)O`, the activation is inactive: -2.1%. In the case of `Nc1ncnc2c1ncn2C1OC(CO)C(O)C1N` (stereo unspecified) it was inactive: -1.8%. The value for `CN1C(=O)Cn2c1nc1ccccc12` was inactive: -1.83%; that for `CC(C)C[C@H](NC(=O)N1CCn2c1nc1ccccc12)C(=O)N1CCCCC1` was inactive: -1.46%. The value for `CC(C)CSc1nc2ccccc2n1CC(N)=O` was inactive: -1.14%; that for `C[C@H](O)[C@@H]1C(=O)N2CCc3ccc(N4CCOCC4)cc3[C@@H]2C[C@@H]1N(C)C(=O)Nc1ccccc1` was inactive: -3.06%. As to `CN(CC(=O)Nc1cccc(F)c1)C(=O)Cn1cnc2c1c(=O)n(C)c(=O)n2C`, the activation was inactive: -1.46%.

On to `CC(C)NC(=O)Cn1c(SCC(=O)N2CCCCCC2)nc2ccccc21`, for which the activation is inactive: -1.43%.

Regarding `Cc1ccccc1NC(=O)Cn1cnc2c1c(=O)n(C)c(=O)n2C`, the activation is inactive: -0.66%. The value for `O=C(Cn1c(COc2ccccc2)nc2ccccc21)Nc1cc(Cl)ccc1Cl` was inactive: 2.16%; that for `COc1ccc(CC(=O)N2CCC(Nc3nc4ccccc4n3Cc3ccc(F)cc3)CC2)cc1` was inactive: -1.59%.

For the compound `COc1ccc(CCNC(=O)Cn2c(-c3nonc3N)nc3ccccc32)cc1OC`, the activation is inactive: -1.4%. In the case of `O=C(NCCn1c(C(F)(F)F)nc2ccccc21)[C@H]1CCCN1c1nc(CN2CCCCC2)cs1` it was inactive: 0.22%. The value for `COc1ccc(N2C(=O)CC(n3c(CCCCO)nc4ccccc43)C2=O)cc1` (stereo unspecified) was inactive: -0.69%; that for `Cn1c(=O)c2c(ncn2CC(N)=O)n(C)c1=O` was inactive: -0.88%.

Consider `O=C(Cn1c(-c2cncs2)nc2ccccc21)NCc1ccccc1`, for which the activation is inactive: -3.05%.

Consider `CC1CN(Cc2nc3c(c(=O)[nH]c(=O)n3C)n2CCN2CCOCC2)CC(C)O1` (stereo unspecified), for which the activation was inactive: -1.49%. The value for `O=C(Nc1ccc2c(c1)nc1n2CCN(Cc2ccccc2)C1)c1cccs1` was inactive: -1.04%; that for `O=C(CCC(=O)Nc1ccccc1)N/N=C/C=C/c1ccccc1` was inactive: 0.55%; that for `Cc1cccc(OCC(O)Cn2c(=N)n(CCN3CCOCC3)c3ccccc32)c1` (stereo unspecified) was inactive: -2.21%. In the case of `O=C(CSc1nc2ccccc2n1CC(=O)N1CCCC1)NCc1ccc2c(c1)OCO2`, the activation is inactive: -0.1%. On to `Cc1cc(SC(NC(=O)c2ccc(F)cc2)C(Cl)(Cl)Cl)ncn1` (stereo unspecified), for which the activation was inactive: 0.38%. In the case of `CCOP(=O)(Nc1ccccc1)OCC` it was inactive: -1.29%. In the case of `CCOc1ccc2nc(NC(=O)Cn3cnc4c3c(=O)n(C)c(=O)n4C)sc2c1` it was inactive: 0.38%. In the case of `O=C(Cn1c(/C=C/c2ccccc2)nc2ccccc21)Nc1ccc(F)cc1`, the activation was inactive: 2.02%.

Regarding `Cc1csc2c(NC3CCN(Cc4ccccc4)CC3)ncnc12`, the activation was inactive: -0.7%.
